{"sequences": {"note": "Protein sequences, listed by entry. Tags and fused reporters are not part of them.", "UniProt P24468, whole entry": "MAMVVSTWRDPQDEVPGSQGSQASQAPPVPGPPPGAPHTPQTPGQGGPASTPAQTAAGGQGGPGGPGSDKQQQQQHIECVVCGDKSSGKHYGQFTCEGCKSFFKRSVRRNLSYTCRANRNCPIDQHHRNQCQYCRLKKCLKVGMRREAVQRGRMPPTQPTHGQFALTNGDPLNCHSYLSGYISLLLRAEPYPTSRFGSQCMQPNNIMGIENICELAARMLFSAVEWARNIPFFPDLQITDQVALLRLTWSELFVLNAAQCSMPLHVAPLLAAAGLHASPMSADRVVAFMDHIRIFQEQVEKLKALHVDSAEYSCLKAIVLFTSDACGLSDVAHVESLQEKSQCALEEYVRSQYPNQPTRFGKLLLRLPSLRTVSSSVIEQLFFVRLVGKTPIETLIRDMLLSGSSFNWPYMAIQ"}, "source": "PubChem BioAssay AID686940", "about": "(The Scripps Research Institute Molecular Screening Center, 2013)", "note": "Only a part is listed here, and it is no random draw. The source made the active and inactive calls.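 The calls were made as follows: active = inhibition above a per-plate cutoff, mean inhibition of test wells between control levels plus 3 SD (cut at about 38% in these data); inactive = the rest.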", "data": [{"target": "COUP transcription factor 2 (Homo sapiens) (UniProt P24468)", "test": "NR2F2 transcriptional activity inhibitors, primary screen, cell-based, luciferase reporter, HEK293T, luminescence (AID 686940);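 also: cells cotransfected with COUP-TFII expression vector driving the NGFI-A reporter; 0% = median of COUP-TF2 test wells and 100% = reporter-only cells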", "details": "HEK293T NGFI-A luciferase reporter, at 8.6 µM, hits give high values", "values": [{"compound": "CCC(=O)N(c1ccccc1)C1(COC)CCN(CCn2nnn(CC)c2=O)CC1", "inhibition": "inactive: 1.91%"}, {"compound": "CCC(=O)N(c1ccccc1)C1(COC)CCN(CCc2cccs2)CC1", "inhibition": "inactive: -15.9%"}]}]}
